This passage reports biofilm state results from US11975009B2, “Use of zinc porphyrin as an antimicrobial” (ZNABLE LLC, priority 2022, dated 2024).

The test relates to PsA PAO1 biofilm. Kind of test: PAO1 biofilm on coupons, LIVE/DEAD stain, confocal microscopy. As to conditions: 4 μg/mL for 24 h. It counts as cell-based, Pseudomonas aeruginosa. The procedure:
FIG. 2A: ZnPor (alone) stained biofilm. […] Length of size bar: […].
FIGS. 15A-15B show the biofilms of PAO1 treated with various concentrations of ZnPor (II) and in combination with PEV2 phage. Biofilms of strain PAO1 were grown on coupons cut from polyethylene in MSG media for approximately 16-18 hours. Overnight media was replaced with fresh PBS and were treated with (FIG. 15B) ZnPor (II) only at concentrations of 5, 10 or 25 μg/mL, and incubated for 2 h, (FIG. 15A) phage PEV2 only (MOI=10:1) for 4 h, or (FIG. 15B) ZnPor (II) treatment for 2 h followed by the addition of phage PEV2 (MOI of 10:1) and incubated for an additional 4 h. Coupons were gently washed in distilled water and were treated with LIVE/DEAD™ stain. All coupons were imaged using confocal laser scanning […] microscopy (CLSM) at 60×. Green=LIVE Red=DEAD.
PAO1 was grown overnight in MSG at 37 C with shaking. CDC Bioreactors with PE coupons were inoculated to a final OD of 0.15 in cation adjusted Mueller Hinton broth. Biofilms were grown 16-18 h at 37 degrees C. with 50 rpm stirring. Control biofilm is shown (FIG. 20A). All overnight media in bioreactors were replaced with fresh PBS. Bioreactors treated with ZnPor (II) at 4 μg/mL were left to incubate for 2 hours without stirring. Bioreactors treated with either whole PEV2 phage or the purified DNA genome of PEV2 were incubated for 24 hours without stirring. […]

Take “meso-5,10,15-tris(N-methyl-4-pyridyl)-20-(pentafluorophenyl)porphyrinatozinc(II), tris-p-toluene sulfonate [ZnPor]”: the biofilm state result is listed as “more than a monolayer of cells, many not dead”.
